Values quoted from earlier work as cited in patent publication US7135196B2, “Iron compositions” (Vitra Pharmaceuticals Limited, priority 2000, dated 2006).

For ferrous gluconate, which solubility in water is on record?
The solubility in water was “poorly and slowly soluble”.
